Laboratory results reported in patent publication US20240016245A1, “ANTIMICROBIAL FACEMASK” (BMG (British Medical Group) Limited, priority 2020, published 2024).

Experiment: Compatibility of surfactants with copper sulfate solutions for coating fabric
Format: physicochemical

Structure (SMILES): CCCCCCCC/C=C\CCCCCCCC[N+](C)(C)[O-] [N,N-dimethyloleyl N-oxide]
- precipitation from copper sulfate solutions / solution suitable for coating: causing precipitation
